# Ab-14 light chain CDR variants: yeast mating affinities

Data: MIT Lincoln Laboratory AlphaSeq set, Engelhart et al. 2022, doi:10.1038/s41597-022-01779-4, as distributed in FLAb.

Target: peptide PDVDLGDISGINAS, taken from heptad repeat 2 (HR2) of SARS-CoV-2 spike.

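The parent was found by panning a naive human phage display library on the peptide. The library (AAYL50) carries one to three amino acid substitutions per variant, with no insertions or deletions. The assay is AlphaSeq: two haploid yeast populations carry antibody and antigen on their surface. Binding brings cells together so that they mate, and sequencing counts the barcode pairs among the diploids. Scores were corrected for input abundance and mapped to Kd with protein pairs of known affinity run in the same pool. There are three technical replicates.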

Parent: Ab-14, a human scFv built as VH, a (GGGGS)3 linker, VL. Only the CDRs of the light chain vary.
VH: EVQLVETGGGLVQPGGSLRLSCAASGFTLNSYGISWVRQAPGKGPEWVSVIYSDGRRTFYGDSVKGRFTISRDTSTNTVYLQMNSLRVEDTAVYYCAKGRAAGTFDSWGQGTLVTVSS
VL: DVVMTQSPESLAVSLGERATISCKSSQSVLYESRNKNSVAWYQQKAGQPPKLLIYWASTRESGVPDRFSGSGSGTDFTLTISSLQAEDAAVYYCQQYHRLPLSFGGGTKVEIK

Positions count from residue 1 of the parent VL; A40L puts L in place of A.
Numbers give log10(Kd / nM), so 0 is 1 nM and 3 is 1 µM. Smaller is tighter.
An entry "ND" has no value in the source: the pair was not observed among the diploids in that replicate. This suggests poor binding but is not conclusive.

changes	log10 Kd, replicates	empty controls
A40L/R99H/P101Q	ND 4.68 ND	0/9
E61P/H98G/R99A	2.36 1.99 2.79	0/9
V29M/Q95A/R99E	1.70 2.18 2.40	0/9
Y31C/R99A/L100T	3.91 4.87 5.49	4/9 (3.52)
S25E/Q27R/Q95I	3.44 ND ND	1/9 (4.16)
A40G/T59H/L100M	1.90 2.50 1.56	1/9 (4.12)
Q27Y/S28Q/W56C	2.35 2.23 2.67	4/9 (4.42)
S25P/S62W/S103P	3.42 2.41 3.42	2/9 (4.09)
K36S/S38M	ND ND ND	0/9
S28L/S103I	ND ND ND	0/9
R34Q/K36G/V39D	ND ND ND	1/9 (2.98)
Q27S/L102F/S103A	0.82 0.95 0.88	2/9 (4.31)
R60W/S62G/H98P	3.38 4.25 ND	0/9
V29W/Y31Q/Y97W	ND 2.83 5.48	4/9 (3.89)
S25N/L102S	1.83 2.02 2.01	1/9 (3.70)
Q27G/R34L/W56P	ND ND ND	0/9
N37T/Y97R/S103W	4.05 2.51 4.01	1/9 (3.69)
K24R/S33T/V39P	ND ND ND	0/9
S25I/S28I/R34L	0.21 0.45 0.32	0/9
R60P/S62W/P101I	ND ND 6.03	5/9 (4.03)
K24T/A40E/T59M	4.10 4.35 4.18	3/9 (4.42)
S26W/R34A/Q95G	ND ND ND	0/9
S25P/Q95P/P101Q	ND ND ND	2/9 (3.99)
E61H/R99A	ND ND ND	0/9
S38F/V39C	ND ND ND	0/9
A40R/H98I/L100H	ND ND ND	0/9
K24V/E32I/S103C	ND ND ND	3/9 (4.44)
V29N/K36D/S103V	0.91 1.19 1.00	0/9
S26H/N35I/S38R	ND ND ND	0/9
S28H/Y31E/T59V	0.73 0.95 0.87	2/9 (3.86)
S25K/T59R	4.35 2.41 2.72	3/9 (3.77)
S26P/V29F/Q96T	0.09 0.49 0.39	0/9
E61T/L102G	1.58 1.93 1.72	4/9 (4.59)
Y31N/S33G/R99K	0.91 1.19 1.12	3/9 (5.32)
V29P/Y31S/E32P	1.00 1.17 1.22	2/9 (3.89)
S38P/S62A/S103M	3.21 2.27 2.22	2/9 (3.84)
T59I/S62M/S103G	2.53 2.10 2.50	0/9
Y31I/L100N/S103K	0.42 0.59 0.47	0/9
Q27E/N35W/H98Y	0.80 1.31 0.96	0/9
R60A/Y97K/L100Q	ND 4.73 ND	0/9
S25D/V29C/R60H	5.20 ND 4.24	3/9 (4.00)
K36F/L102N/S103I	ND ND ND	1/9 (3.64)
S25V/Q95S	0.48 0.63 0.58	3/9 (4.20)
N35R/H98N	ND ND ND	1/9 (4.83)
A40L/L100I	ND ND ND	2/9 (2.83)
S26D/S38A/Q95A	1.29 1.56 1.67	4/9 (4.14)
Q27I/P101A/S103A	4.31 4.64 3.13	2/9 (3.91)
S26W/S28H/N37E	ND ND ND	0/9
S25M/S58G/R99S	0.27 0.70 0.53	1/9 (5.03)
R60L/S62Q	0.62 0.87 0.69	2/9 (3.84)
L100N/S103L	1.41 1.67 1.55	1/9 (5.04)
S25M/A57R/H98N	1.30 1.57 1.53	2/9 (4.16)

The closing 4 entries, repeated:

changes,"log10 Kd, replicates",empty controls
S25M/S58G/R99S,0.27 0.70 0.53,1/9 (5.03)
R60L/S62Q,0.62 0.87 0.69,2/9 (3.84)
L100N/S103L,1.41 1.67 1.55,1/9 (5.04)
S25M/A57R/H98N,1.30 1.57 1.53,2/9 (4.16)

Background: pairings of library AAYL50 with three empty control strains gave a value in 18% of cases (median 4.19, 5th percentile 2.99). Values in that range, when seen in few replicates, are hard to tell from nonspecific mating. The control count says in how many pairings with the empty strains this scFv gave a signal, with their mean in brackets.
In this assay the parent's reference entry averaged 0.65; its copy inside this library read 1.68.